Sequences of proteins named here, by UniProt entry; tags and fusion partners are left off.
UniProt P19020, whole entry: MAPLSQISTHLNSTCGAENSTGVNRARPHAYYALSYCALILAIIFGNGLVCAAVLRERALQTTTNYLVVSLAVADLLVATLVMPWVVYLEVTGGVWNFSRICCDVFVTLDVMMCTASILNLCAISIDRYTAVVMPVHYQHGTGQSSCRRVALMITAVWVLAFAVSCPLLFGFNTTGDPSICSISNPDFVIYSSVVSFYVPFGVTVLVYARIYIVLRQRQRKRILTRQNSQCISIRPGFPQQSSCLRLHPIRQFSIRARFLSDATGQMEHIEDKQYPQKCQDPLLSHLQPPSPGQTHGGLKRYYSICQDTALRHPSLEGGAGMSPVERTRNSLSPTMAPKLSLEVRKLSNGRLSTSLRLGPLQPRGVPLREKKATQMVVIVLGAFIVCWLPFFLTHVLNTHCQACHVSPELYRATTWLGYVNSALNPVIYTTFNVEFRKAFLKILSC

In publication PMC3760392 (Bioorganic & medicinal chemistry, 2013):

Molecular target: rD3 receptor (Rattus norvegicus, UniProt P19020)
Conditions: ratio of Ki rD2L / Ki rD3

CCCN(CCC)[C@H]1CCc2c(O)cccc2C1 [(−)-5-OH-DPAT, reference compound]
D2L/D3: 43.2
